## Fraction unbound values, as collected for the OPERA models

Values as listed in the OPERA 2.9 repository of K. Mansouri.

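OPERA's authors assembled the values from existing databases and did not measure them anew. One number stands for a compound and property, with no spread given. Method, purity and exact conditions of the single measurements are not given. The measured form (salt, isomer or mixture) is not always the one drawn. Some entries may be limits or estimates that an upstream database listed as plain numbers.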

fu is the fraction unbound in human plasma, from 0 to 1. Cells with "n/a" have no entry in this list.

structure (SMILES)	name	fu
O=C(c1ccccc1)c1ccc(O)cc1O	2,4-dihydroxybenzophenone	0.0113
Cc1nc2n(c(=O)c1CCN1CCC(c3noc4cc(F)ccc34)CC1)CCC[C@H]2O	Paliperidone	0.23
CC(C)(C)N1CCC(c2ccccc2)(c2ccccc2)CC1	Budipine	0.04
CN1C(CSCC(F)(F)F)Nc2cc(Cl)c(S(N)(=O)=O)cc2S1(=O)=O (stereo not given)	Polythiazide	0.15
CCOC(=O)[C@H](CCc1ccccc1)N[C@@H](C)C(=O)N1Cc2ccccc2C[C@H]1C(=O)O	Quinapril	0.03541
O=C(O)c1ccccc1Nc1cccc(C(F)(F)F)c1	Flufenamic acid	0.1
Cc1cc(C(=O)NCCc2ccc(S(=O)(=O)NC(=O)NN3CCCCCC3)cc2)no1	Glisoxepide	0.07
CCCCCCCCCCCCN1CCCC1=O	1-dodecyl-2-pyrrolidinone	0.0125
Cc1oc(-c2ccccc2)nc1CCOc1cccc2c1ccn2CCC(=O)O	n/a	0.00409
O=C(NO)C1(NS(=O)(=O)c2ccc(Oc3ccc(F)cc3)cc2)CCOCC1	n/a	0.145
COc1ccc2cc1Oc1cc3c(cc1OC)CC[N+](C)(C)[C@H]3Cc1ccc(cc1)Oc1c(OC)c(OC)cc3c1[C@@H](C2)[N+](C)(C)CC3	Dimethyltubocurarine	0.65
Cc1cn([C@H]2CCCN([C@H](CC(C)(C)C)c3ccc(C(=O)O)c(Oc4cccc(Br)c4)c3)C2)c(=O)[nH]c1=O	n/a	0.01686
CC(=O)c1ccc(S(=O)(=O)NC(=O)NC2CCCCC2)cc1	Acetohexamide	0.04
CN(C)CC(c1ccc(O)cc1)C1(O)CCCCC1 (stereo not given)	O-Desmethyl Venlafaxine	0.7
CN1CCN(CC1)c1ccccc1/C=C1SCCN(C1=O)c1cc(Cl)c(Cl)cc1	n/a	0.0329
CO	Methanol	0.9712
Oc1cc2ccccc2c2ccccc12	9-Phenanthrol	0.005435
CCOC(=O)c1ccccc1C(=C1C=C(Br)C(=O)C(Br)=C1)c1cc(Br)c(O)c(Br)c1	Tetrabromophenolphthalein ethyl ester	0.0114
CCN(CC)c1ccc(C(=O)c2ccccc2C(=O)O)c(O)c1	2-[4-(diethylamino)-2-hydroxybenzoyl]benzoic acid	0.00517
N[C@@H]1CONC1=O	Cycloserine	0.8
COc1ccc2ncc(=O)n(CCN3CC[C@H](NCc4ccc5c(n4)NC(=O)CO5)[C@H](O)C3)c2c1	n/a	0.08531
COc1ccc(CCNCC(O)COc2cccc(C)c2)cc1OC (stereo not given)	Bevantolol	0.02264
Cc1ccc(-c2cc(C(F)(F)F)nn2-c2ccc(S(N)(=O)=O)cc2)cc1	Celecoxib	0.01783
CCC(C)N(C)C(=O)c1cc2ccccc2c(-c2ccccc2Cl)n1 (stereo not given)	n/a	0.01614
CCc1ccccc1	Ethylbenzene	0.1676
CC(=O)OCC(CCn1cnc2cnc(N)nc21)COC(C)=O	Famciclovir	0.85
CCC(C)(C)OC	Tert-amyl methyl ether	0.8097
CN(C)[C@@H]1C(O)=C(C(=O)NCN2CCCC2)C(=O)[C@@]2(O)C(O)=C3C(=O)c4c(O)cccc4[C@@](C)(O)C3C[C@@H]12 (some centres undefined)	n/a	0.5
c1ccc2c(c1)Cc1ccccc1-2	Fluorene	0.01567
C#C[C@]1(O)CC[C@H]2[C@@H]3CCC4=CCCC[C@@H]4[C@H]3CC[C@@]21C	Lynestrenol	0.04
c1ccc(C(O[C@@H]2CCCN(CCc3ccc4c(c3)OCO4)C2)c2ccccc2)cc1	Zamifenacin	0.002114
CC(C)Nc1cccnc1N1CCN(C(=O)c2cc3cc(NS(C)(=O)=O)ccc3[nH]2)CC1	Delavirdine	0.02
Cc1ccc(C(=O)c2ccccc2)cc1	4-methylbenzophenone	0.0188
Nc1ccc(O)c(C(=O)O)c1	5-Aminosalicylic acid	0.43
CS(=O)(=O)O.Cc1nccn1-c1ccc(Sc2cccc(C3(C(N)=O)CCOCC3)c2)cc1	n/a	0.06671

Extract of 3 entries:

structure (SMILES)	name	fu
O=C(NO)C1(NS(=O)(=O)c2ccc(Oc3ccc(F)cc3)cc2)CCOCC1	n/a	0.145
CS(=O)(=O)O.Cc1nccn1-c1ccc(Sc2cccc(C3(C(N)=O)CCOCC3)c2)cc1	n/a	0.06671
Cc1nc2n(c(=O)c1CCN1CCC(c3noc4cc(F)ccc34)CC1)CCC[C@H]2O	Paliperidone	0.23